Values joined by “and” are separate entries in the source; they are usually repeats but may differ in a detail not shown here. Identical values can stand only once. This is a selection; strong and weak results do not stand in their true shares.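 Results are percent growth after 48 hours of single-concentration exposure. 100 means growth as in untreated cells, lower positive values show inhibition; negative values down to -100 show cell death.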 Active and inactive are the calls of the source. How the source made its calls: active means growth percent below 10; inactive means the rest.
Columns and labels:
Assay in all cases: NCI-60 one-dose screen, 48 h (100 = growth as untreated, 0 = no growth, -100 = all killed)
Conditions in all cases: 10 µM
NCI/ADR-RES ovarian = tested on: NCI/ADR-RES ovarian
T-47D breast = tested on: T-47D breast
BT-549 breast = tested on: BT-549 breast
MDA-MB-435 melanoma = tested on: MDA-MB-435 melanoma
SW-620 colon = tested on: SW-620 colon
MCF7 breast = tested on: MCF7 breast
HCT-116 colon = tested on: HCT-116 colon
HCC-2998 colon = tested on: HCC-2998 colon
KM12 colon = tested on: KM12 colon

Measured: growth

CCC(C)(C)c1ccc(O)c(CN(CCCl)CCCl)c1
inactive: NCI/ADR-RES ovarian 100% | T-47D breast 98.3% | BT-549 breast 82.3% | MDA-MB-435 melanoma 104% | SW-620 colon 105% | MCF7 breast 86.5% | HCT-116 colon 99.4% | HCC-2998 colon 105% | KM12 colon 108%

N#CC1(Nc2ccccc2)CCN(Cc2ccccc2)CC1
inactive: NCI/ADR-RES ovarian 105% | T-47D breast 28.9% | BT-549 breast 204% | MDA-MB-435 melanoma 97.8% | SW-620 colon 103% | MCF7 breast 97.5% | HCT-116 colon 101% | HCC-2998 colon 91% | KM12 colon 101%

C1CCNCC1.O=C(O)C(O)c1ccc(N(CCCl)CCCl)cc1 (stereo not drawn)
inactive: NCI/ADR-RES ovarian 108% | T-47D breast 106% | BT-549 breast 95.7% | MDA-MB-435 melanoma 103% | SW-620 colon 92.5% | MCF7 breast 96.8% | HCT-116 colon 96.5% | HCC-2998 colon 108% | KM12 colon 103%

CC(C)(C)C(=O)CBr
inactive: NCI/ADR-RES ovarian 109% | T-47D breast 99.3% | BT-549 breast 96.7% | MDA-MB-435 melanoma 114% | SW-620 colon 102% | MCF7 breast 98.4% | HCT-116 colon 100% | HCC-2998 colon 108% | KM12 colon 106%

C[N+](C)(CCCl)CCCl
inactive: NCI/ADR-RES ovarian 112% | T-47D breast 96.6% | BT-549 breast 113% | MDA-MB-435 melanoma 98.8% | SW-620 colon 104% | MCF7 breast 97.5% | HCT-116 colon 110% | HCC-2998 colon 113% | KM12 colon 110%

Cc1cc(O)c(CN(CC(C)Cl)CC(C)Cl)cc1C (stereo not drawn)
inactive: NCI/ADR-RES ovarian 112% | T-47D breast 85% | BT-549 breast 120% | MDA-MB-435 melanoma 100% | SW-620 colon 107% | MCF7 breast 95% | HCT-116 colon 104% | HCC-2998 colon 106% | KM12 colon 105%

O=C(O)CCCCc1ccc(N(CCCl)CCCl)cc1
inactive: NCI/ADR-RES ovarian 86.1% | T-47D breast 96.4% | BT-549 breast 88.4% | MDA-MB-435 melanoma 103% | SW-620 colon 72.3% | MCF7 breast 74.5% | HCT-116 colon 82.6% | HCC-2998 colon 88.5% | KM12 colon 96.6%

Fc1ccc(CCN(CCCl)CCCl)cc1
inactive: NCI/ADR-RES ovarian 110% | T-47D breast 94.7% | BT-549 breast 107% | MDA-MB-435 melanoma 98.5% | SW-620 colon 96.4% | MCF7 breast 90.5% | HCT-116 colon 100% | HCC-2998 colon 128% | KM12 colon 107%

CC(C)NP(=O)(F)NC(C)C
inactive: NCI/ADR-RES ovarian 105% | T-47D breast 100% | BT-549 breast 115% | MDA-MB-435 melanoma 110% | SW-620 colon 105% | MCF7 breast 102% | HCT-116 colon 104% | HCC-2998 colon 101% | KM12 colon 104%

O/N=C/c1ccc(N(CCCl)CCCl)cc1
inactive: NCI/ADR-RES ovarian 101% | T-47D breast 93.1% | BT-549 breast 94.2% | MDA-MB-435 melanoma 93.2% | SW-620 colon 97.4% | MCF7 breast 71.8% | HCT-116 colon 94.7% | HCC-2998 colon 102% | KM12 colon 108%

CCNC(=O)Cc1ccc(N(CCCl)CCCl)cc1
inactive: NCI/ADR-RES ovarian 90.4% | T-47D breast 77.5% | BT-549 breast 114% | MDA-MB-435 melanoma 92.3% | SW-620 colon 74% | MCF7 breast 45.8% | HCT-116 colon 99.1% | HCC-2998 colon 93% | KM12 colon 99.8%

COc1ccc(C(=O)O)cc1N(CCCl)CCCl
inactive: NCI/ADR-RES ovarian 99.3% | T-47D breast 91.9% | BT-549 breast 97.1% | MDA-MB-435 melanoma 101% | SW-620 colon 92.1% | MCF7 breast 88.3% | HCT-116 colon 109% | HCC-2998 colon 105% | KM12 colon 101%

Cc1ccc(CN(CCCl)CCCl)cc1
inactive: NCI/ADR-RES ovarian 94.3% | T-47D breast 87.2% | BT-549 breast 88.3% | MDA-MB-435 melanoma 106% | SW-620 colon 78.8% | MCF7 breast 80.5% | HCT-116 colon 89.6% | HCC-2998 colon 89.1% | KM12 colon 110%

N#CC1(Nc2ccc(Cl)cc2)CCN(Cc2ccccc2)CC1
inactive: NCI/ADR-RES ovarian 51.4% | T-47D breast 57% | BT-549 breast 56.8% | MDA-MB-435 melanoma 37.8% | SW-620 colon 45.2% | MCF7 breast 70.1% | HCT-116 colon 57.7% | HCC-2998 colon 79.8% | KM12 colon 38.2%

Cc1cccc(NC2(C#N)CCN(Cc3ccccc3)CC2)c1
inactive: NCI/ADR-RES ovarian 113% | T-47D breast 102% | BT-549 breast 93.8% | MDA-MB-435 melanoma 106% | SW-620 colon 106% | MCF7 breast 95.7% | HCT-116 colon 102% | HCC-2998 colon 109% | KM12 colon 106%

COc1cc(N(CCCl)CCCl)cc(OC)c1OC
inactive: NCI/ADR-RES ovarian 93.6% | T-47D breast 91.6% | BT-549 breast 85% | MDA-MB-435 melanoma 109% | SW-620 colon 84.5% | MCF7 breast 75.4% | HCT-116 colon 95.2% | HCC-2998 colon 96.5% | KM12 colon 102%

Cc1ccc2oc(=O)cc(CN(CCCl)CCCl)c2c1
inactive: NCI/ADR-RES ovarian 93.2% | T-47D breast 116% | BT-549 breast 97.7% | MDA-MB-435 melanoma 100% | SW-620 colon 84.8% | MCF7 breast 75.3% | HCT-116 colon 94% | HCC-2998 colon 87.9% | KM12 colon 96.9%

O=C(O)Cc1c[nH]c2ccc(N(CCCl)CCCl)cc12
inactive: NCI/ADR-RES ovarian 99.3% | T-47D breast 99.6% | BT-549 breast 89.8% | MDA-MB-435 melanoma 103% | SW-620 colon 91.4% | MCF7 breast 91.3% | HCT-116 colon 101% | HCC-2998 colon 102% | KM12 colon 113%

Cc1ccc(S(=O)(=O)CN(CCBr)CCBr)cc1
inactive: NCI/ADR-RES ovarian 109% | T-47D breast 101% | BT-549 breast 113% | MDA-MB-435 melanoma 105% | SW-620 colon 105% | MCF7 breast 78.7% | HCT-116 colon 107% | HCC-2998 colon 112% | KM12 colon 127%

CCCSP(=O)(CCl)N(CCCl)CCCl (stereo not drawn)
inactive: NCI/ADR-RES ovarian 102% | T-47D breast 93.6% | BT-549 breast 100% | MDA-MB-435 melanoma 101% | SW-620 colon 89.2% | MCF7 breast 87.6% | HCT-116 colon 106% | HCC-2998 colon 105% | KM12 colon 109%

Cc1ccc(NC2(C(N)=O)CCN(Cc3ccccc3)CC2)cc1
inactive: NCI/ADR-RES ovarian 103% | T-47D breast 104% | BT-549 breast 106% | MDA-MB-435 melanoma 101% | SW-620 colon 106% | MCF7 breast 107% | HCT-116 colon 109% | HCC-2998 colon 105% | KM12 colon 112%

Fc1cccc(CBr)c1
inactive: NCI/ADR-RES ovarian 107% | T-47D breast 90.6% | BT-549 breast 96.8% | MDA-MB-435 melanoma 99.3% | SW-620 colon 101% | MCF7 breast 99.2% | HCT-116 colon 107% | HCC-2998 colon 106% | KM12 colon 102%

O=CC(O)C(O)C(O)C(O)CN(CCCl)CCCl (stereo not drawn)
inactive: NCI/ADR-RES ovarian 104% | T-47D breast 91.5% | BT-549 breast 101% | MDA-MB-435 melanoma 97.5% | SW-620 colon 97.8% | MCF7 breast 96.6% | HCT-116 colon 105% | HCC-2998 colon 109% | KM12 colon 99.4%

Cn1c(=O)[nH]cc(N(CCCl)CCCl)c1=O
inactive: NCI/ADR-RES ovarian 76.6% | T-47D breast 111% | BT-549 breast 94.6% | MDA-MB-435 melanoma 104% | SW-620 colon 68% | MCF7 breast 73.1% | HCT-116 colon 82.3% | HCC-2998 colon 84.1% | KM12 colon 102%

Oc1ccc(O)c(CN(CCCl)CCCl)c1
inactive: NCI/ADR-RES ovarian 99% | T-47D breast 96.2% | BT-549 breast 103% | MDA-MB-435 melanoma 106% | SW-620 colon 89% | MCF7 breast 90% | HCT-116 colon 97.5% | HCC-2998 colon 101% | KM12 colon 99%

CCOC(=O)N1CCC(=O)CC1
inactive: NCI/ADR-RES ovarian 104% | T-47D breast 95.1% | BT-549 breast 99.3% | MDA-MB-435 melanoma 104% | SW-620 colon 102% | MCF7 breast 96.5% | HCT-116 colon 105% | HCC-2998 colon 115% | KM12 colon 98.4%

[O-][n+]1onc(-c2ncon2)c1-c1ncon1
inactive: NCI/ADR-RES ovarian 105% | T-47D breast 82.3% | BT-549 breast 107% | MDA-MB-435 melanoma 97.8% | MCF7 breast 84.1% | HCT-116 colon 35% | HCC-2998 colon 98.8% | KM12 colon 94.5%
active: SW-620 colon 6.32%

Cc1ccc(CN(CCCl)CCCl)cc1C
inactive: NCI/ADR-RES ovarian 106% | T-47D breast 89.9% | BT-549 breast 97.9% | MDA-MB-435 melanoma 101% | SW-620 colon 99.4% | MCF7 breast 86.4% | HCT-116 colon 94.1% | HCC-2998 colon 96% | KM12 colon 99.7%

NC(Cc1cccc(N(CCCl)CCCl)c1)C(=O)O (stereo not drawn)
inactive: NCI/ADR-RES ovarian 97.2% and 104% | T-47D breast 96.1% and 99.1% | BT-549 breast 101% and 99.7% | MDA-MB-435 melanoma 102% and 105% | SW-620 colon 78.1% and 78.2% | MCF7 breast 67.7% and 60.4% | HCT-116 colon 91.7% and 97.1% | HCC-2998 colon 103% and 99.9% | KM12 colon 108% and 101%

COc1cccc(N(CCCl)CCCl)c1OC
inactive: NCI/ADR-RES ovarian 73.4% | T-47D breast 74.7% | BT-549 breast 88.9% | MDA-MB-435 melanoma 95.7% | SW-620 colon 62.1% | MCF7 breast 62.3% | HCT-116 colon 68% | HCC-2998 colon 75% | KM12 colon 93.7%

COc1cc(CN(CCCl)CCCl)cc(OC)c1
inactive: NCI/ADR-RES ovarian 101% | T-47D breast 89.4% | BT-549 breast 96.3% | MDA-MB-435 melanoma 102% | SW-620 colon 98.8% | MCF7 breast 87.2% | HCT-116 colon 93.5% | HCC-2998 colon 95.6% | KM12 colon 108%

O=Cc1ccc(N(CCCl)CCCl)cc1Cl
active: T-47D breast 6%
inactive: NCI/ADR-RES ovarian 80.2% | BT-549 breast 89.8% | MDA-MB-435 melanoma 99.2% | SW-620 colon 61% | MCF7 breast 16% | HCT-116 colon 35.6% | HCC-2998 colon 91.1% | KM12 colon 108%

From PubChem BioAssay (NCI)
